According to US20260076974A1, “COMPOSITIONS FOR PREVENTING AND TREATING INFECTION COMPRISING AN ARTIFICIAL SWEETENER” (Brunel University London, priority 2022, published 2026):

Experiments:
[1] = test system: A. baumannii AB5075; settings: media supplemented with […] ace-K

Compound: CC1=CC(=O)[N-]S(=O)(=O)O1.[K+] [ace-K, potassium salt of 6-methyl-1,2,3-oxathiazine-4 (3H)-one 2,2-dioxide]
- ADI equivalent for a person weighing 75 kg: about 1000 mg
- transformation efficiency [1]: significant reduction
